# Measurements published in patent EP0714402B9, “POLYMER MODIFICATION” (PolyMASC Pharmaceuticals plc, priority 1993, dated 1995).
# Assay: phase partitioning after 2h coupling, comparison of PEGylation methods
# Settings: 2h. coupling period, activated PEG:lysine 305:1
substance,measurement,value
Phenylchloroformate,PARTITION COEFFICIENT,4.92±0.02
